This is an account of results in PubChem BioAssay AID602229 (The Scripps Research Institute Molecular Screening Center, 2012).

Sequences of proteins named here, by UniProt entry; tags and fusion partners are left off.
UniProt Q9Y5X4, whole entry: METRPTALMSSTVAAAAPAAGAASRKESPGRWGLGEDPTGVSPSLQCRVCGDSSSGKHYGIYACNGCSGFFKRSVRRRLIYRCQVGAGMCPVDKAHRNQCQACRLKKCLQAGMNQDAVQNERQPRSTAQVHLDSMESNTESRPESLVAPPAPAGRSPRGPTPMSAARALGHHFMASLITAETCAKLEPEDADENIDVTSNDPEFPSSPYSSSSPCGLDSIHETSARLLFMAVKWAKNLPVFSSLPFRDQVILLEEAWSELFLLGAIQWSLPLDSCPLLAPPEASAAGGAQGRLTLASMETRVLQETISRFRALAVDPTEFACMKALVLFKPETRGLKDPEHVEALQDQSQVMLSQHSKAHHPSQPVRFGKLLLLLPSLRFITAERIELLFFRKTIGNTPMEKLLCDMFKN

The structures appear in SMILES notation. The list shows a part of the results, in another mix than the full data. The source made the active and inactive calls.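 The calls were made as follows: active = inhibition above the mean of all tested compounds plus 3 SD (cut at about 70% in these data); inactive = the rest.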

The target in this test is Photoreceptor-specific nuclear receptor (Homo sapiens) (UniProt Q9Y5X4). Briefly: NR2E3 agonists in two-hybrid cells, primary screen, cell-based, luminescence, CHO-S, Gal4-NCOR/VP16-NR2E3 (AID 602229).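 Also: 0% = DMSO with NR2E3 transfected cells and 100% = cells lacking NR2E3 construct; higher means lower luciferase signal from less NR2E3 corepressor binding.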 Particulars: luciferase, at 3.98 µM, active compounds read high.
In the case of `CCN1CCC(Nc2ccc(Cl)cc2)CC1`, the inhibition of corepressor binding was inactive: -29.4%. The value for `N#CC1(Nc2ccccc2)CCN(CCc2ccccc2)CC1` was inactive: -10.4%; that for `O=c1[nH]c2ccccc2n1C1CCN(C(c2ccccc2OC(F)(F)F)c2nnnn2C2CCCC2)CC1` (centres undefined) was inactive: 40.5%. As to `CSc1ccc(C(=O)NCC2(N3CCOCC3)CCCCC2)cc1`, the inhibition of corepressor binding was inactive: -11.3%. The same measure for `O=C(NCC1(N2CCCCC2)CCCCC1)c1cccc([N+](=O)[O-])c1`: inactive: 3.11%; for `CC(C)(C)n1nnnc1C(c1ccccc1OC(F)(F)F)N1CCC(n2c(=O)[nH]c3ccccc32)CC1` (centres undefined): inactive: 43.2%; for `O=C(NCC1(N2CCCCC2)CCCCC1)c1ccc(OC(F)F)cc1`: inactive: -8.66%. Consider `COc1ccc(C(c2nnnn2C2CCCC2)N2CCC(n3c(=O)[nH]c4ccccc43)CC2)cc1` (centres undefined), for which the inhibition of corepressor binding is inactive: -4.19%. The same measure for `Cc1ccc(C(=O)NCC2(N(C)C)CCCCC2)o1`: inactive: 14.2%. The same measure for `CCCOc1ccc(C(=O)NCC2(N(C)C)CCCCC2)cc1OC`: inactive: -24.2%; for `O=C(NCC1(N2CCCCC2)CCCCC1)c1cncc(Br)c1`: inactive: 11%. The same measure for `CN1CCC(Nc2cccc(F)c2)CC1`: inactive: -33.5%; for `COc1cc(OC)c(C(=O)NCC2(N(C)C)CCCCC2)cc1OC`: inactive: -27.8%; for `CCC(c1nnnn1C(C)(C)C)N1CCC(n2c(=O)[nH]c3ccccc32)CC1` (centres undefined): inactive: 25.8%. Regarding `O=C(NCC1(N2CCOCC2)CCCCC1)c1cc(F)c(F)cc1Cl`, the inhibition of corepressor binding is inactive: -28.9%. The same measure for `CCCCn1nnnc1C(c1ccnc2ccccc12)N1CCC(n2c(=O)[nH]c3ccccc32)CC1` (centres undefined): inactive: -1.39%. For the molecule `CC(C)c1ccc(NC2CCN(C(=O)OC(C)(C)C)CC2)cc1`, the inhibition of corepressor binding is inactive: -68.6%.

In the case of `CCCCn1nnnc1C(c1ccccc1OC(F)(F)F)N1CCC(n2c(=O)[nH]c3ccccc32)CC1` (centres undefined), the inhibition of corepressor binding was inactive: 50.5%. As for `COc1ccc(CN(CCCl)CCCl)cc1Cl`, the inhibition of corepressor binding was inactive: -4.09%. The value for `CN(C)c1cccc(C(=O)NCC2(N3CCCCC3)CCCCC2)c1` was inactive: -9.14%; that for `O=c1[nH]c2ccccc2n1C1CCN(C(c2cc3ccccc3o2)c2nnnn2C2CCCCC2)CC1` (centres undefined) was inactive: -12%; that for `O=C(OC1CN2CCC1CC2)C1c2ccccc2Oc2ccccc21` (centres undefined) was inactive: 10%. The same measure for `N#CC1(Nc2ccccc2)CCN(Cc2ccccc2)CC1`: inactive: -1.41%.

Regarding `O=C(NCC1(N2CCCCC2)CCCCC1)c1ccc(Cl)s1`, the inhibition of corepressor binding is inactive: -14%.

In the case of `COc1ccc(Cl)cc1C(=O)NCC1(N2CCOCC2)CCCCC1`, the inhibition of corepressor binding is inactive: -4.11%. The same measure for `CCOC(=O)N1CCC(Nc2ccc(OC)cc2)CC1`: inactive: 20%. The same measure for `CCCCn1nnnc1C(c1ccc(OC)cc1)N1CCC(n2c(=O)[nH]c3ccccc32)CC1` (centres undefined): inactive: 1.42%. As for `O=c1[nH]c2ccccc2n1C1CCN(C(c2ccccc2OC(F)(F)F)c2nnnn2C2CCCCC2)CC1` (centres undefined), the inhibition of corepressor binding was inactive: 8.5%.

Consider `O=C(NCC1(N2CCCCC2)CCCCC1)c1ccc(Cl)nc1`, for which the inhibition of corepressor binding is inactive: 8.7%. The same measure for `Cc1cc(C)cc(N(C(=O)c2ccccc2)C2CCN(C(=O)OC(C)(C)C)CC2)c1`: inactive: -16.4%. The value for `O=C(NCC1(N2CCOCC2)CCCCC1)c1cc2ccccc2o1` was inactive: -17.1%; that for `CSc1ccccc1C(=O)NCC1(N2CCCCC2)CCCCC1` was inactive: -14.1%; that for `Cc1cccc(NC2(C#N)CCN(Cc3ccccc3)CC2)c1` was inactive: -54.1%. Take `COc1ccc(C(=O)NCC2(N3CCCCC3)CCCCC2)cc1`: the inhibition of corepressor binding was inactive: -6.01%. The value for `CCC(c1nnnn1C1CCCC1)N1CCC(n2c(=O)[nH]c3ccccc32)CC1` (centres undefined) was inactive: -8.04%; that for `CC(C)(C)OC(=O)N1CCC(N(C(=O)c2ccccc2)c2ccc(F)cc2)CC1` was inactive: 1.66%. The same measure for `COc1ccc(C(=O)NCC2(N3CCCCC3)CCCCC2)c(OC)c1OC`: inactive: -0.88%; for `O=C(NCC1(N2CCCCC2)CCCCC1)c1ccc(=O)[nH]c1`: inactive: -36.4%; for `CCCCn1nnnc1C(c1cccs1)N1CCC(n2c(=O)[nH]c3ccccc32)CC1` (centres undefined): inactive: 29.4%.

For `O=C(NCC1(N2CCCCC2)CCCCC1)c1cccs1`, the inhibition of corepressor binding is inactive: 2.02%. The value for `CCCCn1nnnc1C(CC)N1CCC(n2c(=O)[nH]c3ccccc32)CC1` (centres undefined) was inactive: -5.96%. The same measure for `COc1cc(C(=O)NCC2(N(C)C)CCCCC2)ccc1OC(F)F`: inactive: 13.1%; for `CCOC(=O)N1CCC(Nc2cccc(C)c2)CC1`: inactive: -1.35%; for `O=c1[nH]c2ccccc2n1C1CCN(C(c2cccc3ccccc23)c2nnnn2C2CCCC2)CC1` (centres undefined): inactive: 22.6%. The same measure for `O=c1[nH]c2ccccc2n1C1CCN(C(c2ccccc2)c2nnnn2C2CCCCC2)CC1` (centres undefined): inactive: -23.4%; for `O=C(NCC1(N2CCCCC2)CCCCC1)c1ccc(F)cc1`: inactive: 5.07%.

`CCCCOc1ccc(C(=O)NCC2(N3CCOCC3)CCCCC2)cc1`: the inhibition of corepressor binding is inactive: 9.8%.

Turning to `O=P1(N(CCCl)CCCl)SCCCS1`, the inhibition of corepressor binding is inactive: 11.8%.

`CCCCn1nnnc1C(c1cc2ccccc2o1)N1CCC(n2c(=O)[nH]c3ccccc32)CC1` (centres undefined): the inhibition of corepressor binding was inactive: 14.3%.

As for `CCOC(=O)N1CCC(Nc2ccc(F)cc2)CC1`, the inhibition of corepressor binding was inactive: 15.2%. The same measure for `COc1ccc(NC2CCN(CCc3ccccc3)CC2)c(OC)c1`: inactive: 13.3%; for `CC(C)(C)n1nnnc1C(c1ccccc1)N1CCC(n2c(=O)[nH]c3ccccc32)CC1` (centres undefined): inactive: 7.97%. `O=C1CCN(Cc2ccccc2)CC1`: the inhibition of corepressor binding is inactive: 3.73%. The same measure for `CCOc1ccc(C)cc1CN(CCCl)CCCl`: inactive: 6.13%.
